Measured values as given in ChEMBL document CHEMBL5726014, “N-aralkylcarbonyl-piperazine and -homopiperazine compounds and personal care compositions comprising the same” (2018).

Protein sequences, listed by entry. Tags and fused reporters are not part of them.
UniProt P20309, whole entry, looked up: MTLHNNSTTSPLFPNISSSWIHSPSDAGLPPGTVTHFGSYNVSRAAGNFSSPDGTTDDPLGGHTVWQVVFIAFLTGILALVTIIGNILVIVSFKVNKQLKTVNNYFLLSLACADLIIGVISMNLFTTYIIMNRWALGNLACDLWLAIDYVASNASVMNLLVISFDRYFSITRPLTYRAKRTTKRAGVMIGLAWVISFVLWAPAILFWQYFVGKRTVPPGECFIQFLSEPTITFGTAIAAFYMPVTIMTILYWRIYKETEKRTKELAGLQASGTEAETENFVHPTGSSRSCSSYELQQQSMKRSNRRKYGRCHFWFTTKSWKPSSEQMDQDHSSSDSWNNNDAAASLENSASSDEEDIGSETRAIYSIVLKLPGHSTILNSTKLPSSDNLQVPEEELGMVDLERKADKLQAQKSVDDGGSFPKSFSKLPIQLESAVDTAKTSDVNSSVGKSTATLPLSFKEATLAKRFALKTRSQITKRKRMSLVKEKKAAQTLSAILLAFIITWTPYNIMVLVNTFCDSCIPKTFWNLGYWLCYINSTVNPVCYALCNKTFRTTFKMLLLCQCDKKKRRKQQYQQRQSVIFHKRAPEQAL

Biological target: Muscarinic acetylcholine receptor M3 (Homo sapiens, UniProt P20309)

**Q.** For CN1CCCN(C(=O)C(O)(c2ccccc2)C2CCCC2)CC1 (centres undefined), which IC50 is on record?
**A.** Its IC50 is 9.5 nM.

**Q.** CN1CCN(C(=O)C(O)(c2ccccc2)C2CCCC2)CC1 (centres undefined) was tested. Which IC50 did it give?
**A.** The IC50 was 1400 nM.

**Q.** How did the IC50 turn out when COc1ccc(CCN2CCN(C(=O)C(O)(c3ccccc3)C3CCCC3)CC2)cc1OC (centres undefined) was run?
**A.** The IC50 was 5700 nM.

**Q.** For O=C(CCN1CCN(C(=O)C(O)(c2ccccc2)C2CCCC2)CC1)c1ccccc1 (centres undefined), which IC50 is on record?
**A.** The IC50 was 346 nM.

**Q.** For COc1ccc(CC(C)N2CCN(C(=O)C(O)(c3ccccc3)C3CCCC3)CC2)cc1 (centres undefined), which IC50 is on record?
**A.** Its IC50 is 3000 nM.

**Q.** Which IC50 does the source give for CC(CCc1ccccc1)N1CCN(C(=O)C(O)(c2ccccc2)C2CCCC2)CC1 (centres undefined) here?
**A.** Its IC50 is 144 nM.

**Q.** How did the IC50 turn out when O=C(N1CCN(CCCCc2ccccc2)CC1)C(O)(c1ccccc1)C1CCCC1 (centres undefined) was run?
**A.** Its IC50 is 609 nM.

**Q.** For COc1ccc(C(=O)CN2CCN(C(=O)C(O)(c3ccccc3)C3CCCC3)CC2)cc1 (centres undefined), which IC50 is on record?
**A.** The IC50 was 3900 nM.

**Q.** Which IC50 does the source give for O=C(N1CCCN(CCCc2ccccc2)CC1)C(O)(c1ccccc1)C1CCCC1 (centres undefined) here?
**A.** The IC50 was 266 nM.
